# Target: human Nav1.x channels (Homo sapiens, UniProt P35499)
# Protein sequences, listed by entry. Tags and fused reporters are not part of them.
# UniProt P35499, whole entry: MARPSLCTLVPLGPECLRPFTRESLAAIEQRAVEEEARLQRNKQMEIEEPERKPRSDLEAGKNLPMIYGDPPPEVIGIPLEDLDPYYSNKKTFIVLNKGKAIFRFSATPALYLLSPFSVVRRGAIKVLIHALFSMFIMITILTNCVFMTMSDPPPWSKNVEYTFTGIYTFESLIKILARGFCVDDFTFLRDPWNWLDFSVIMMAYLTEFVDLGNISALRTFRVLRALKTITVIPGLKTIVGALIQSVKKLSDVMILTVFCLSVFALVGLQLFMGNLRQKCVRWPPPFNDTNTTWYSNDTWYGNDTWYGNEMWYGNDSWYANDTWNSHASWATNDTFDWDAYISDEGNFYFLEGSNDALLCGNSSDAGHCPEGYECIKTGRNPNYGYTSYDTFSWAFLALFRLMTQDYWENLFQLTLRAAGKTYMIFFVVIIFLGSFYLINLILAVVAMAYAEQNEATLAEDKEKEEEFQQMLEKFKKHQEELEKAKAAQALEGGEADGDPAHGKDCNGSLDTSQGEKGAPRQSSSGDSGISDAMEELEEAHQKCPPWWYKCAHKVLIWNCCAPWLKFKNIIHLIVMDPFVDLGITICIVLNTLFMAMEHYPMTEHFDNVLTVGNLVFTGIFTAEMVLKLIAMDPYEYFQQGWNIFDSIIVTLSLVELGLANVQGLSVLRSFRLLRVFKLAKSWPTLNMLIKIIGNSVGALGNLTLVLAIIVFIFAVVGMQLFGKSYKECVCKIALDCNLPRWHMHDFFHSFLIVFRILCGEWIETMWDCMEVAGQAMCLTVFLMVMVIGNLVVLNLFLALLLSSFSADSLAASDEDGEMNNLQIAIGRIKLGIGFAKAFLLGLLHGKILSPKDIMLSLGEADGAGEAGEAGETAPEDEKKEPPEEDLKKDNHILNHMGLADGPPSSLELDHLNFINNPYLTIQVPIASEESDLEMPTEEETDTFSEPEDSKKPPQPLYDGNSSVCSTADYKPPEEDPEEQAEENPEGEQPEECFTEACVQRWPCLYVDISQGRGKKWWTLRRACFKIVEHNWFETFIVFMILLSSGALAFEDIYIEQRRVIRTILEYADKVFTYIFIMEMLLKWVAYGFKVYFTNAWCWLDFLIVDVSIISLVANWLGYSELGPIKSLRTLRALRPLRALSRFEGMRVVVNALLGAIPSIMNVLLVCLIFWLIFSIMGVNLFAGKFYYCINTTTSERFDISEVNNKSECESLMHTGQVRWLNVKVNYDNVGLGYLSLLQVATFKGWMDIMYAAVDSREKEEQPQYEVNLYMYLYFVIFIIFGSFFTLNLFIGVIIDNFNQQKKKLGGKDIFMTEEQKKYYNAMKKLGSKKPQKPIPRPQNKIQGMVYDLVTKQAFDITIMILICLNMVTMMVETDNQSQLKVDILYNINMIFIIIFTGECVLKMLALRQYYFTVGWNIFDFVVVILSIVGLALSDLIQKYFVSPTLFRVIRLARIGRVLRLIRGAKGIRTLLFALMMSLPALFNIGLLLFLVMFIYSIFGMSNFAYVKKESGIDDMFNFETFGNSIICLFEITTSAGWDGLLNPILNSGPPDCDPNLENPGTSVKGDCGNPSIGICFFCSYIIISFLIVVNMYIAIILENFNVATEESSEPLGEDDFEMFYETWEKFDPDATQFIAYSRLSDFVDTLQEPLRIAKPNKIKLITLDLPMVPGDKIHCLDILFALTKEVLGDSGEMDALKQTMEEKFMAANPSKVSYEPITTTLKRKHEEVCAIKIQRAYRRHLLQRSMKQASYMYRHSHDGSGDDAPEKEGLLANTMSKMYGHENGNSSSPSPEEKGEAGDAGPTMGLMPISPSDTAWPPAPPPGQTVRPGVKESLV
# Format: cell-based
# Conditions: read-out: IC50 (nM) Nav1.4
substance,measurement,value
GPYCQKWMQTCDSERKCCEGMVCRLWCKKKLL-COOH [compound 63955918],IC50,17000 nM

# — patent US20170334959A1 (priority 2015, published 2017)
